Activity calls are given as the source filed them. The calls are words filed in the database; no cut-off is given here.
Legend:
[1] = target: 5-hydroxytryptamine receptor 2A (Homo sapiens) (UniProt P28223); experiment: Agonist activity at 5HT2A receptor (unknown origin); assay type: functional
[2] = target: 5-hydroxytryptamine receptor 2A (Homo sapiens) (UniProt P28223); experiment: Antagonist activity at 5HT2A receptor (unknown origin); assay type: functional
[3] = target: T1, Probable G-protein coupled receptor 139 (Homo sapiens) (UniProt Q6DWJ6); experiment: Potency index, ratio of TAK-041 EC50 to test compound EC50 for agonist activity at human GPR139 transfected in CHO-K1 cells assessed as increase in calcium mobilization by FLIPR analysis; assay type: functional, cell-based; conditions: filed as agonist
T1 sequence (whole entry): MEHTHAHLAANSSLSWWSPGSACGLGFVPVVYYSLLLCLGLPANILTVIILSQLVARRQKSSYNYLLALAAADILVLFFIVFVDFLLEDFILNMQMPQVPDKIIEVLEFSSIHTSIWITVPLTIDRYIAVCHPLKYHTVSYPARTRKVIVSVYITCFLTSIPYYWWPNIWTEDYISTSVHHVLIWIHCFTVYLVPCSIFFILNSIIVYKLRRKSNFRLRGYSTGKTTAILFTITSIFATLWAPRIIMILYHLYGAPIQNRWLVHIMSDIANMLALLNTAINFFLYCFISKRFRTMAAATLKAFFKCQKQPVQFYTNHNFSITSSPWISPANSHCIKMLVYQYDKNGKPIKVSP

Chains of the proteins cited; added tags and fusions are not shown.
UniProt P28223, whole entry: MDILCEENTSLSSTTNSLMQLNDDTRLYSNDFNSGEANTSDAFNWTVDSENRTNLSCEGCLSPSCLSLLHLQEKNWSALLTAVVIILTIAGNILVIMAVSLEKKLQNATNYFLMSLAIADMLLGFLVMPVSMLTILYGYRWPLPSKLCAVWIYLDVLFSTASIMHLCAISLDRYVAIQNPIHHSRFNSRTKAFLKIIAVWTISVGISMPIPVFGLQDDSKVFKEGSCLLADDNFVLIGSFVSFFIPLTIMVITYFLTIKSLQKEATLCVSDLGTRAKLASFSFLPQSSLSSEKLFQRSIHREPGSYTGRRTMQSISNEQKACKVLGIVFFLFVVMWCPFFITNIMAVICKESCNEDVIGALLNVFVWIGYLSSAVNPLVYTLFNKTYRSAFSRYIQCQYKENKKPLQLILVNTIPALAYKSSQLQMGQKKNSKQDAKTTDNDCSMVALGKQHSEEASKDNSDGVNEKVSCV

Compound | Activity [1] | Activity [2] | Ratio EC50 [3]
C[C@H](NC(=O)Cn1ncc2cccn2c1=O)c1ccc(OC(F)(F)F)cc1 | inactive | inactive | –
C[C@H](NC(=O)Cn1ncc2sccc2c1=O)c1ccc(Cl)c(F)c1 | – | – | 7
C[C@H](NC(=O)Cn1ncc2sccc2c1=O)c1ccc(OC(F)(F)F)cc1 | inactive | inactive | –
